Assay [1] deals with Sigma non-opioid intracellular receptor 1 (Rattus norvegicus, UniProt Q9R0C9). Description: Displacement of (+)-[3H]-3-PPP from rat cortical sigma site.
The target of another assay is D(2) dopamine receptor (Rattus norvegicus, UniProt P61169). Briefly: In vitro inhibitory against radioligand [3H]spiperone binding to rat striatal Dopamine receptor D2.

By UniProt entry, the sequences of proteins in these tests, tags left out.
UniProt Q9R0C9, whole entry: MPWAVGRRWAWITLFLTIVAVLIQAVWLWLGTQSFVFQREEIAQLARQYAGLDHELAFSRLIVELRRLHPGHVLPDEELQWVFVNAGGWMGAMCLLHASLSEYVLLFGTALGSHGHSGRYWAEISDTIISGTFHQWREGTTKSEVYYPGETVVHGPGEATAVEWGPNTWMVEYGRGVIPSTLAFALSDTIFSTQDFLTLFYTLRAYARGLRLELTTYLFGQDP
UniProt P61169, whole entry: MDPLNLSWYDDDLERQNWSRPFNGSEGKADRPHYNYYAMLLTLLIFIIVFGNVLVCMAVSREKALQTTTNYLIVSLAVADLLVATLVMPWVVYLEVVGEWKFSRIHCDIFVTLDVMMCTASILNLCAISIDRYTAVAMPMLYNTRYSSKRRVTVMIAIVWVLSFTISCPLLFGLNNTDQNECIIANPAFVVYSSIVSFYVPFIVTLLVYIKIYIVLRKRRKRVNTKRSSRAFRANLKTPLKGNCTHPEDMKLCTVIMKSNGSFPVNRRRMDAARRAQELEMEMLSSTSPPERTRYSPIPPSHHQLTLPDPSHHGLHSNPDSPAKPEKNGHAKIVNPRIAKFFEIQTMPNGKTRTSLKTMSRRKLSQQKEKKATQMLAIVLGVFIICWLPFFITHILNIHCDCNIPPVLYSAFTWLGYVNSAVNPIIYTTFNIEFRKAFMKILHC

The structures appear in SMILES notation.

With `O=C(CCCN1CCN(c2ncc(Cl)cn2)CC1)c1ccc(F)cc1`, the IC50 in assay [1] stood at 57 nM.

`O/N=C(\CCCN1CCN(c2ncc(F)cn2)CC1)c1ccc(F)cc1` displayed an IC50 on D(2) dopamine receptor of 1860 nM.

In turn, `O=C(CCCN1CCN(c2ncc(F)cn2)CC1)c1ccc(F)cc1` yielded an IC50 on D(2) dopamine receptor of 494 nM.

Broadly, the IC50 is the concentration needed to halve the response being measured. Low readings indicate greater potency, high ones weaker potency.

Values taken from ChEMBL document CHEMBL1126099, “Synthesis and biological characterization of alpha-(4-fluorophenyl)-4-(5-fluoro-2-pyrimidinyl)-1-piperazinebutanol and analogues as potential atypical antipsychotic agents” (J Med Chem, 1992).
